Values of other authors, collected in patent US20250197658A1, “ANTIOXIDANT STABILIZERS FOR DIRECT FABRICATION OF ORTHODONTIC APPLIANCES” (Align Technology, Inc., priority 2023, published 2025).

Conditions: cited from earlier work

Substance: Vitamin E
- amount most people can take: up to 1000 mg/day
